# GALK inhibitor = galactokinase (human) inhibition; Potency, µM (highest dose often 57.5 µM), without a hit: at the top dose activity change, negative = inhibition, usual class: inhibitors; hit rate 0.007% among 270,000; Purified GALK, Kinase-Glo residual ATP luminescence; AID 1868; note: potency is the fitted concentration of half-maximal effect; % is set by controls: 0 for no effect and ±100 for the full control effect
#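 The enzyme phosphorylates galactose (100 uM) using ATP (35 uM); inhibition is detected as higher residual ATP, quantified by bioluminescence after 1 h reaction at room temperature, pH 8.0.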
# miR-21 reporter = miR-21 reporter, rising signal. HeLa miR-21 FLuc reporter, luciferase, 48 h. Potency, µM (titrated, usually from 38.3 µM), without a hit: at the top dose reporter change, positive = more light. 340,000 tested, under 10 active. AID 2288; active = well fitted rising curve with a large enough effect; inconclusive = small, poorly fitted or top-dose-only effect; inactive = no such curve, though single readings can be large or run the other way;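 also: % of control where 0% means no effect; miR-21 action dims this reporter so a rising signal means less miR-21 action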
#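 HeLa cells endogenously expressing miR-21, stably carrying CMV-driven firefly luciferase with a downstream miR-21 binding site, 2000 cells/well. Titrations up to approximately 40 uM, 48 hours; luciferase luminescence read.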
# Nrf2 activator = activators of Nrf2 (ARE) signaling. hit rate 0.31% among 410,000. Potency, µM (series often up to 46.1 µM), for the others: top-dose activation, actives largely listed as activators. AREc32 ARE-luciferase reporter (MCF7-derived line), luminescence, 24 h; note: potency is the fitted concentration of half-maximal effect; % of control where 0% means no effect; nearly all actives have a fitted effect of over 65% in size
#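 For detection, Steady-Glo was added and plates sat 30 min at RT; before that, AREc32_Fluc cells grown overnight in OPTI-MEM/5% FBS had been treated with 23 nL compound for 24 hr at 37 deg C.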
# Nrf2 inh = inhibitors of Nrf2 signaling. A549 ARE-Fluc reporter, luciferase luminescence, 18-24 h. Potency, µM (series often up to 46 µM), for the others: at the top dose activity change, negative = inhibition, most hits filed as inhibitors. hit rate 2.1% among 360,000; note: potency is the fitted concentration of half-maximal effect; % is set by controls: 0 for no effect and ±100 for the full control effect; nearly all actives have a fitted effect of over 60% in size
#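 Nrf2 activity is the BugLite luminescence, read 15 min after reagent at room temperature, following CellTiter-Fluor cytotoxicity readout (30 min, 37C). Compound titrations were applied for 18-24 h to 5000 A549 ARE_Fluc cells/well in 5% FBS OPTI-MEM.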
# PI4K2A inh = inhibitors of human PI4K2A; Q9BTU6; hit rate 0.13% among 420,000; AID 1346378; activity change, negative = inhibition, % at 76.9 µM; purified PI4K2A, ADP-Glo luminescence, 1 h; stronger effect = lower value; in the data active = activity change below about -50%; inconclusive = mostly about -30% to -49%;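 note: -100% = wells without enzyme as full effect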
#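 ADP-Glo luminescence measured ADP generated by PI4K2A enzyme (4 ug/mL before mixing) with 1.2 mM PI substrate (pre-mix) and 300 microM ATP (pre-mix). Tris pH7.5 buffer with MgCl2, Triton X-100; 1 h reaction at ambient temperature.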
# A549 tox = counter-screen for Nrf2 inhibitors: cytotoxicity in A549 cells | A549 ARE-Fluc cells, CellTiter-Fluor viability, 18-24 h | Potency, µM (doses to about 46 µM), for the others: at the highest dose activity change, negative = cytotoxicity, usual class: inhibitors | hit rate 0.16% among 390,000 | AID 504648; note: potency is the fitted concentration of half-maximal effect; % is set by controls: 0 for no effect and ±100 for the full control effect
#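 A549 ARE_Fluc cells in 5% FBS OPTI-MEM were exposed to compounds in concentration-response for 18-24 h at 37 deg C. Viability was read by CellTiter-Fluor fluorescence (Ex 405/Em 525) after 30 min, before the luciferase read.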
# * marks the source's active call; other numbers are inactive results; ? = inconclusive; · = no result given. Most compounds without a hit are left out; they make up all but 2.2% or so of the library. Unless noted, calls come from the whole dose curve; as a rule, active = well fitted curve in the direction sought with a large enough effect; inconclusive = small, poorly fitted or top-dose-only effect, or another doubt; inactive = no such curve, though single readings can be large; an effect the other way counts as inactive or inconclusive.
# The first 3 entries (preview)
# Key to letters – A = GALK inhibitor; B = miR-21 reporter; C = Nrf2 activator; D = Nrf2 inh; E = PI4K2A inh; F = A549 tox
mol: Cc1ccc(C)c(Nc2nc3nonc3nc2N2CCOCC2)c1
  A: ·; B: -4%; C: 0%; D: 12%; E: 4; F: 1%

mol: Cc1ccc(C)c(Nc2nc3nonc3nc2Nc2cccc(C)c2C)c1
  A: ·; B: ?; C: 1%; D: 5.8µM*; E: -2; F: ?

mol: CC(C)c1cc(C(C)C)c(S(=O)(=O)Nc2cccc3cccnc23)c(C(C)C)c1
  A: ·; B: ·; C: ·; D: ?; E: ·; F: 11%

# This part in full, from the first entry:
# Key to letters – A = GALK inhibitor; B = miR-21 reporter; C = Nrf2 activator; D = Nrf2 inh; E = PI4K2A inh; F = A549 tox
mol: Cc1ccc(C)c(Nc2nc3nonc3nc2N2CCOCC2)c1
  A: ·; B: -4%; C: 0%; D: 12%; E: 4; F: 1%

mol: Cc1ccc(C)c(Nc2nc3nonc3nc2Nc2cccc(C)c2C)c1
  A: ·; B: ?; C: 1%; D: 5.8µM*; E: -2; F: ?

mol: CC(C)c1cc(C(C)C)c(S(=O)(=O)Nc2cccc3cccnc23)c(C(C)C)c1
  A: ·; B: ·; C: ·; D: ?; E: ·; F: 11%

mol: CCCc1cc(=O)[nH]c(SCC(=O)Nc2sc(C(N)=O)c(C)c2C(=O)OCCOC)n1
  A: ·; B: ·; C: -1%; D: 5.2µM*; E: -4; F: -3%

mol: COc1ccc(S[C@]2(C(=O)N3CCN(C(C)=O)CC3)CC(=O)N(S(=O)(=O)c3ccc(F)cc3)[C@@H]2c2ccc(OC)cc2)cc1
  A: ·; B: ·; C: ·; D: ·; E: -3; F: ·

mol: CC1(c2nnc(-c3ccccc3)o2)CC(c2c(Cl)cccc2Cl)=NO1 (stereo unspecified)
  A: ·; B: ·; C: 0%; D: 23µM*; E: 1; F: -15%

mol: CC1(c2nnc(-c3ccncc3)o2)CC(c2ccc([N+](=O)[O-])cc2)=NO1 (stereo unspecified)
  A: 5%; B: 2%; C: -1%; D: 12µM*; E: 0; F: 2%

mol: CCOC(=O)c1ccc(NS(=O)(=O)c2ccc(-c3cc(C)no3)cc2)cc1
  A: ·; B: -1%; C: -1%; D: -15%; E: -2; F: -1%

mol: CCOC(=O)c1ccc(NS(=O)(=O)c2cc(-c3onc(C)c3C)ccc2C)cc1
  A: ·; B: -15%; C: 1%; D: 21µM*; E: 1; F: -9%

mol: N#C/C(=C(/O)COc1ccc(Cl)cc1)c1nc2ccccc2s1
  A: ?; B: -4%; C: 2%; D: 23µM*; E: -3; F: 16µM*

mol: COc1ccc(-c2ccc3ncnc(NCc4cccs4)c3c2)cc1
  A: ·; B: ·; C: ·; D: 0%; E: ·; F: 21%

mol: CCc1noc(C)c1C(=O)Nc1nc(-c2ccc(OC)cc2OC)cs1
  A: ·; B: ·; C: 0%; D: 8.2µM*; E: -2; F: -3%

mol: COc1cccc(CC(=O)Nc2nc(-c3cc(OC)ccc3OC)cs2)c1
  A: 1%; B: -15%; C: 0%; D: -13%; E: 3; F: -1%

mol: COc1ccc(OC)c(-c2csc(NC(=O)Cc3cccs3)n2)c1
  A: -1%; B: -3%; C: 7%; D: 16µM*; E: -16; F: -6%

mol: COc1ccc(CC(=O)Nc2nc(-c3cc(OC)ccc3OC)cs2)cc1
  A: 0%; B: 12%; C: 0%; D: 12µM*; E: -3; F: -20%

mol: COc1ccc(OC)c(-c2csc(NC(=O)Cc3ccccc3)n2)c1
  A: 0%; B: -8%; C: 3%; D: 18µM*; E: -3; F: -17%

mol: CCc1noc(C)c1C(=O)Nc1nc(-c2cc(OC)ccc2OC)cs1
  A: ·; B: ·; C: 3%; D: -11%; E: 4; F: 2%

mol: O=C(COCc1ccccc1)N1CC[C@H]2[C@H](CCCN2Cc2ccccc2)C1
  A: ·; B: ·; C: ·; D: ·; E: 0; F: ·

mol: COc1ccc(CC(=O)Nc2nc(C(C)(C)C)cs2)cc1
  A: -6%; B: 14%; C: 2%; D: 13µM*; E: 0; F: ?

mol: Cc1cnn(-c2ccccc2)c1NC(=O)COCc1ccccc1
  A: ·; B: ·; C: ·; D: ·; E: 0; F: ·

mol: Cc1noc(C)c1-c1ccc2ncnc(NCc3ccco3)c2c1
  A: ·; B: ·; C: ·; D: -22%; E: ·; F: 3%

mol: CC1(C)CC(=O)C=C(NC2=CC3OC(c4ccccc4)OCC3OC2=O)C1 (stereo unspecified)
  A: ·; B: 27%; C: 8%; D: 16µM*; E: -9; F: ?

mol: Cc1ccccc1NC1=CC(=O)CC(C)(C)C1
  A: -2%; B: -2%; C: 0%; D: ·; E: 2; F: 0%

mol: Cc1cc(/C=N/n2cnnc2)c(C)n1-c1ccc(OCc2ccccc2F)cc1
  A: -5%; B: -1%; C: 7%; D: ?; E: -1; F: ?

mol: Cc1cc(/C=N/n2cnnc2)c(C)n1-c1ccc(OCc2ccc(Cl)cc2)cc1
  A: 0%; B: 17%; C: 6%; D: 9.2µM*; E: 3; F: -10%

# Next records
# Key to letters – A = GALK inhibitor; B = miR-21 reporter; C = Nrf2 activator; D = Nrf2 inh; E = PI4K2A inh; F = A549 tox
mol: Nc1ccc(S(=O)(=O)N2CCN(S(=O)(=O)c3c(F)cccc3F)CC2)cc1
  A: ·; B: ·; C: ·; D: -1%; E: ·; F: 1%

mol: CCc1ccc(-n2nc(C)c3c(C(=O)N4CCN(c5ccccc5)CC4)cc(C)nc32)cc1
  A: ·; B: -2%; C: 4%; D: 18µM*; E: -2; F: 0%

mol: CCc1ccc(-n2nc(C)c3c(C(=O)N4CCN(c5cccc(Cl)c5)CC4)cc(C)nc32)cc1
  A: ·; B: 17%; C: 1%; D: ?; E: -2; F: 2%

mol: COCCCN1C(=O)[C@H](CC(=O)NCCCCc2ccccc2)[C@]2(C(=O)OC)CCCCC=C12
  A: ·; B: ·; C: ·; D: ·; E: 4; F: ·

mol: Cc1[nH]nc2c1C(c1ccc(-c3ccc(Cl)cc3)o1)C(C#N)=C(N)O2 (stereo unspecified)
  A: ·; B: -4%; C: 16µM*; D: 20%; E: -1; F: -10%

mol: O=c1[nH]c2ccc(S(=O)(=O)N3CCN(S(=O)(=O)c4ccc5c(c4)OCCO5)CC3)cc2[nH]c1=O
  A: ·; B: ·; C: ·; D: 12%; E: ·; F: -4%

mol: FC(F)(F)c1cccc(N2CCN(c3ccc4nnc(-c5ccccc5)n4n3)CC2)c1
  A: 1%; B: -3%; C: 0%; D: 16µM*; E: 10; F: ?

mol: O=C(c1cscn1)N1CCC(Oc2cccnc2)CC1
  A: ·; B: ·; C: ·; D: ·; E: 1; F: ·

mol: O=C(CSc1ncc(-c2ccccc2)n1CC1CCCO1)N1CCCCC1 (stereo unspecified)
  A: 1%; B: 1%; C: -1%; D: 2%; E: 7; F: 0%

mol: Nc1ncc(-c2ccccc2)n1CC1CCCO1 (stereo unspecified)
  A: -1%; B: -10%; C: 2%; D: 16µM*; E: 3; F: ·

mol: c1ccc(CN2CCN(c3ncnc4sccc34)CC2)cc1
  A: ·; B: ·; C: ·; D: ·; E: -1; F: ·

mol: CCOC(=O)c1cc(-c2ccccc2)sc1NC(=O)COC(=O)c1ccc(Cl)c(S(N)(=O)=O)c1
  A: 0%; B: 1%; C: 0%; D: 23µM*; E: -20; F: ?

mol: Fc1ccccc1-c1n[nH]c(=S)n1N=Cc1ccc(OCc2ccccc2)cc1
  A: ·; B: ·; C: ·; D: ·; E: -4; F: ·

mol: O=C(C1CCCCC1)N1CCN=C1SCc1cccc([N+](=O)[O-])c1
  A: 1%; B: 0%; C: 4%; D: 21µM*; E: 4; F: -2%

mol: CC(C)(C)OC(=O)Cc1nnc(C(C(=O)OCc2ccccc2)c2ccccc2)o1 (stereo unspecified)
  A: ·; B: ·; C: ·; D: 13%; E: ·; F: 0%

mol: COC(=O)c1sc2cccc(F)c2c1S(=O)(=O)NCc1ccc(Cl)cc1
  A: ·; B: -2%; C: 11µM*; D: -19%; E: 0; F: -1%

mol: COC(=O)c1sc2cccc(F)c2c1S(=O)(=O)NCc1ccccc1Cl
  A: ·; B: 0%; C: 13µM*; D: 28%; E: 4; F: -1%

mol: COC(=O)c1sc2cccc(F)c2c1S(=O)(=O)NC(C)c1ccccc1 (stereo unspecified)
  A: ·; B: -2%; C: ?; D: -7%; E: 5; F: -2%

mol: Cn1cc(C2(c3c[nH]c4ccccc34)CCN(C(=O)OC(C)(C)C)CC2)c2ccccc21
  A: ·; B: ·; C: ·; D: ·; E: -4; F: ·

mol: C=CCN(c1ccc(F)cc1)S(=O)(=O)c1cc(C(=O)NC2CCC(O)CC2)ccc1Cl (stereo unspecified)
  A: ·; B: ·; C: -1%; D: 16µM*; E: 1; F: 8%

mol: CCN(CC)c1ccc(/C=C/c2cccc[n+]2C)c(OC)c1
  A: 6%; B: ?; C: 3%; D: 5.8µM*; E: -6; F: 7.3µM*

mol: CCCC1CCC2(CC1)CCC2OC(=O)Nc1cccc(C(F)(F)F)c1 (stereo unspecified)
  A: ·; B: ·; C: ·; D: ·; E: -2; F: ·

# Bioassay records (PubChem BioAssay)
